Where two headings read alike, the source gives them in different places.
Legend:
DIO-NASH mice = test: DIO-NASH mouse study, 12 weeks of QD dosing; assay type: in vivo; conditions: for NAFLD activity score (NAS) reduction compared to the start of treatment: 12 weeks
Procedure: All mice entering the experiment have been pre-biopsied, stratified based on liver biopsy (only animals with fibrosis 1 or above and steatosis 2 or above are included) animals stratified into groups based on Col1a1 immunostaining. […] Body weight (BW) was measured daily for the entire study period, food intake daily for the first 14 days then weekly until study end. Terminal plasma was measured for ALT/AST/TG/TC levels. Terminal liver removal and sampling was carried out for pre to post NAFLD Activity Score (NAS; HE staining) including Fibrosis Stage (Picrosirius red, PSR). Terminal histology was carried out for steatosis, Col1a1 and galectin-3 quantitation. Terminal liver workup included TG+TC (extraction and measurement). Terminal liver biopsies were set up in: 1) 4% PFA for histology, 2) fresh frozen liver for biochemistry, 3) fresh frozen liver for RNA extraction and RNAseq.

[1] = plasma protein binding by ultracentrifugation, monkey plasma; assay type: in vitro ADME, cynomolgus monkey; conditions: pH 7.4, 15000 ng/mL, 37° C., 6 hours
Description: Such non-covalent binding to albumin is anticipated to slow down the degradation of peptide in plasma and results in decreased renal clearance. […] Pooled plasma was obtained from at least three Sprague Dawley rats, beagle dogs, and cynomolgus monkeys. Pooled human plasma was obtained from three human males (that reportedly had not taken any medication in the previous 7 days before collection). K2EDTA was used as the anticoagulant. The pH of each pool of plasma was adjusted, if needed, to approximately pH 7.4 with hydrochloric acid or sodium hydroxide. Ultracentrifugation was performed using polycarbonate ultracentrifugation tube placed in a S80 AT2 rotor at 37° C. at 357000×g for 6 hours to achieve separation of PUC (supernatant) from plasma proteins. After centrifugation, the PUC was analyzed by LC MS for the calculation of protein binding. Protein Binding was evaluated as Percent unbound=(Cu/Co)×100 and Percent bound=100-percent unbound where Co is the concentration of test article in plasma prior to ultracentrifugation (ng/mL) and Cu is the concentration of test article in plasma in the ultracentrifugate (ng/mL).

[2] = single-dose pharmacokinetics in male CRL:CD(SD) rats; assay type: in vivo, rat
Description: Sixteen (+2 spares) male CRL:CD(SD) rats, approximately 250-300 g upon study-initiation, were received from the standing colony maintained at Charles River Labs. Animals were maintained on standard diet (Lab Diet C504). Food consumption was monitored on Study Days 1 through 7 by weighing the food and hopper together. Food and drinking water were provided ad libitum throughout the study with the exception of the overnight fasting periods occurring prior to dosing on Study Day −1. All animals were assigned into groups upon receipt.
On Study Day 1, all animals were administered a bolus dose of group dependent test article (TA) via subcutaneous inter(mid)-scapular injection. Individual animal body weights were recorded beginning on Day −1. […] This study activity is described in more detail in Table 9.
Following administration of TA on Study Day 1, a 300 uL sample of whole blood was collected into K2EDTA tubes via the indwelling jugular vein catheter (JVC) at the timepoints listed A maximum obtainable volume of blood was collected via cardiac puncture for the final timepoint (144-hrs post dose) following CO2 euthanasia. Whole blood samples were stored on wet ice for no longer than 30 minutes prior to centrifugation at 2200×g for 10 minutes at 5° C.±3° C. The resulting plasma was then pipetted into polypropylene tubes and stored nominally in a freezer set to maintain a temperature of −80° C. until transfer to Climax Laboratories (San Jose, Calif.) for pharmacokinetic analysis.
Blood samples (˜300 μL) were collected at 2, 4, 8, 24, 48, 72, 96, 120 and 144 h post-dose (n=4 per time point) into ice cooled K2EDTA tubes and stored on ice until processing to plasma by centrifugation at 2200 rpm for 10 min at 5° C.
Analysis was carried out at Climax Laboratories (San Jose, Calif.) on an API-4000 Mass Spectrometer, ESI positive, MRM scan. Samples were loaded on a Shimadzu HPLC/CTC Autosampler with an ACE C4 column (2.1×50 mm, 5 μm). Elution was by gradient from aqueous 0.5% formic acid, 5 mM NH4OAc to 0.5% formic acid in CH3CN/H2O (9:1). Plasma samples (100 μL) were plated (96 well) and 30 μL of internal peptide standard was added (10 m/mL in PBS). A 300 μL aliquot of CH3CN was added and the sample was vortexed and centrifuged to precipitate plasma proteins. After transfer to a 96 well plate, a 40 μL sample was injected and the individual compound peaks were quantitated with standard curves. […] The quantitation limit is 1-2 ng/mL, depending on analog structure.

[3] = single s.c. dose pharmacokinetics of ALT-801 or semaglutide in male C57BL6/J mice (similar test)
Procedure: A similar test was carried out using male C57BL6/J mice at The Jackson Laboratory-JAX West (Sacramento, Calif.). […] Both compounds were formulated at 0.02 mg/mL in 50 mM phosphate buffer, 0.05% Tween 80 at pH ˜8. The dosing volume was approximately 2 mL/kg. […] Each mouse was bled at two time points and the second time point was a terminal bleed. […] Non-compartmental PK analysis using WinNonlin was performed by using the mean concentrations at each sampling time point to report the maximum concentration (Cmax), the time Cmax was observed (Tmax), the area under the plasma concentration curve from time zero to the last time point with measurable concentration (AUC0-t), the plasma concentration-time curve from time zero to infinity (AUC0-(x)), the terminal elimination half-life (T1/2), and the mean residence time (MRT).

[4] = male C57BL6/J mice, 10 nmol/kg s.c.
[5] = male, C57BL6/J, mouse, in vivo, sc, 10 nmol/kg

CC[C@H](C)[C@H](NC(=O)[C@H](Cc1ccccc1)NC(=O)[C@H](CCC(=O)O)NC(=O)[C@@H]1CCCCNC(=O)CC[C@H](NC(=O)[C@H](CC(=O)O)NC(=O)[C@H](CC(C)C)NC(=O)[C@H](Cc2ccc(O)cc2)NC(=O)[C@H](CCCCN)NC(=O)[C@H](CO)NC(=O)[C@H](Cc2ccc(O)cc2)NC(=O)[C@H](CC(=O)O)NC(=O)[C@H](CO)NC(=O)[C@@H](NC(=O)[C@H](Cc2ccccc2)NC(=O)[C@@H](NC(=O)CNC(=O)[C@H](CCC(N)=O)NC(=O)C(C)(C)NC(=O)[C@@H](N)Cc2c[nH]cn2)[C@@H](C)O)[C@@H](C)O)C(=O)N[C@@H](CCCCNC(=O)[C@H]2O[C@@H](OCCCCCCCCCCCCCCCCCC(=O)O)[C@H](O)[C@@H](O)[C@@H]2O)C(=O)N[C@@H](C)C(=O)N[C@@H](C)C(=O)N1)C(=O)N[C@@H](CCC(N)=O)C(=O)N[C@@H](Cc1c[nH]c2ccccc12)C(=O)N[C@@H](CC(C)C)C(=O)N[C@@H](CC(C)C)C(=O)N[C@@H](CCC(N)=O)C(=O)N[C@H](C(N)=O)[C@@H](C)O [SEQ ID NO: 1]
body weight compared to NASH control (p≤0.001) (DIO-NASH mice; ALT-801 5 and 10 nmol/kg, elafibranor 78 μmol/kg, semaglutide 10 nmol/kg): statistically significantly decreased body weight
NAFLD activity score (NAS) reduction compared to the start of treatment (DIO-NASH mice; NASH mice, 5 nmol/kg SC QD): 32%
body weight reached (lean normal body weight range) (DIO-NASH mice; NASH mice, 10 nmol/kg SC QD): ~30 g
NAFLD activity score (NAS) reduction compared to the start of treatment (DIO-NASH mice; NASH mice, 10 nmol/kg SC QD): 61%
NAS scores achieved by all animals (DIO-NASH mice; NASH mice, 10 nmol/kg group): ≤ 3
expression of cell death genes vs NASH vehicle control (DIO-NASH mice; NASH mice, liver RNAseq): suppression of cell death genes
expression of genes affecting fat usage and transport vs NASH vehicle control (DIO-NASH mice; NASH mice, liver RNAseq): modulation of genes affecting fat usage and transport
expression of liver inflammation genes (FOSB, JUN, TLR4) vs NASH vehicle control (DIO-NASH mice; NASH mice, liver RNAseq): suppression of liver inflammation genes
expression of stellate cell pathway pro-fibrosis genes vs NASH vehicle control (DIO-NASH mice; NASH mice, liver RNAseq): suppression of stellate cell pathway pro-fibrosis genes
liver TC level vs NASH vehicle control, semaglutide and elafibranor (p<0.0001) (DIO-NASH mice; NASH mice, low and high dose): significantly lower
liver TG level vs NASH vehicle control, semaglutide and elafibranor (p<0.01) (DIO-NASH mice; NASH mice, low and high dose): significantly lower
liver weight vs NASH vehicle control, semaglutide and elafibranor (p<0.01) (DIO-NASH mice; NASH mice, low and high dose): significantly decreased liver weight
terminal liver Col1A1 level vs NASH vehicle control, elafibranor and semaglutide (p<0.0001) (DIO-NASH mice; NASH mice, low and high dose): significantly lower
terminal liver Galectin-3 level vs NASH vehicle control, elafibranor and semaglutide (p<0.0001) (DIO-NASH mice; NASH mice, low and high dose): significantly lower
terminal plasma ALT levels vs NASH vehicle control, elafibranor and semaglutide (p<0.01) (DIO-NASH mice; NASH mice, low and high dose): significantly lower
terminal plasma AST levels vs NASH vehicle control (p<0.001) (DIO-NASH mice; NASH mice, low and high dose): significantly lower
fat content of the livers (DIO-NASH mice; NASH mice, low and high dose, end of treatment): reduction in the fat content of the livers
number of differentially expressed genes (liver RNA sequencing) (DIO-NASH mice; NASH mice, high dose ALT-801, elafibranor, semaglutide): ~8000
fraction unbound [1]: 0.000487
AUC as % of that of semaglutide ([2]; 10 nmol/kg sc): 93%
Cmax as % of that of semaglutide ([2]; 10 nmol/kg sc): 54%
AUC ([2]; 10 nmol/kg sc, listed as 17): 2,350 ng·hr/mL
Cmax as % of that of semaglutide ([2]; 10 nmol/kg sc, listed as 17): 62%
MRT ([2]; 10 nmol/kg sc, listed as 17): 21 h
half-life ([2]; CRL:CD(SD) (Sprague-Dawley), rat, in vivo, iv dose of 10 nmol/kg, data not shown): 600 min
Cmax ([2]; male, CRL:CD(SD), rat, in vivo, 10 nmol/kg sc): 76 ng/mL
AUC ([2]; male, CRL:CD(SD), rat, in vivo, 10 nmol/kg sc, read-out: AUC): 2350 ng·h/mL
bioavailability ([2]; male, CRL:CD(SD), rat, in vivo, 10 nmol/kg subcutaneously vs iv): 29%
Tmax ([2]; male, CRL:CD(SD), rat, in vivo, sc, 10 nmol/kg, 10 nmol/kg sc, plasma levels still rising at 8 h, read-out: true Tmax): > 8 h
MRT ([2]; male, CRL:CD(SD), rat, in vivo, sc, 10 nmol/kg, 10 nmol/kg sc, read-out: MRT): 20.6 h
Tmax ([2]; male, CRL:CD(SD), rat, in vivo, sc, 10 nmol/kg, 10 nmol/kg sc, read-out: Tmax): 8 h
AUC as % of semaglutide's value [3, 4]: > 86%
Cmax as % of semaglutide's value [3, 4]: 50%
MRT [3, 5]: 22 h
Tmax [3, 5]: 8 h

Reference: patent publication US20210290732A1, “GLP-1R and GCGR Agonists, Formulations, and Methods of Use” (Spitfire Pharma LLC, priority 2020, published 2021)
